Assay results: patent publication US20160024414A1, “IONIC LIQUIDS AS L[…] BASE STOCKS, COBASE STOCKS AND MULTI[…]” ([…] AND ENGINEERING COMPANY, priority 2012, published 2016)

Conditions: solvent: mPAO150

## dihexadecyldimethylammonium bis(2-ethylhexyl) phosphate [Example 8]
  solubility in mPAO150 (in words): soluble
